Test results: article PMC8524809 (Molecular Therapy, 2021)

System: SARS-CoV-2
Format: cell-based

CC(C)(O)c1ccccc1CC[C@@H](SCC1(CC(=O)O)CC1)c1cccc(/C=C/c2ccc3ccc(Cl)cc3n2)c1 [montelukast]
Effective concentration on the SARS-CoV-2: 25 µM
